The values that follow come from publication PMC5537347, “A short D-enantiomeric antimicrobial peptide with potent immunomodulatory and antibiofilm activity against multidrug-resistant Pseudomonas aeruginosa and Acinetobacter baumannii” (Scientific Reports, 2017).

Read-outs that look alike come from different tables or passages of the source.

For this experiment, the system named is colistin-resistant P. aeruginosa isolated from cystic fibrosis patients. An excerpt:
The broth microdilution technique was utilized to assess the MIC of designed peptides according to the guidelines of the Clinical and Laboratory Standards Institute (CLSI)[37].

Where [1] appears, read: colistin-resistant isolates of Table 3.

Regarding Colistin [reference compound], the MIC50 under setting [1] is 128 µM. Moreover, under setting [1], the MIC90 is more than 256 µM. The substance also yielded an MIC (strain 1015) of more than 256 µM; an MIC (strain 1016) of more than 256 µM; a minimum inhibitory concentration (MIC) (strain 1017) of more than 256 µM; an MIC (strain 1020) of 256 µM; an MIC (strain 1109) of 128 µM; an MIC (strain 1571) of 256 µM. Moreover, the MIC (strain 16011) is recorded as 128 µM.
